Columns and labels:
His-ClnR = assay: Surface plasmon resonance (SPR); format: binding, Clostridioides difficile; details: peptide immobilized on CM5 chip, 25°C immobilization; His-ClnR 10 μM to 0.625 μM, pH 7.3, Biacore X100, 1:1 affinity model
[1] = tested on: C. difficile 630∆erm pMC123; assay: qRT-PCR, His-ClnR complementation; details: 0.5 µg/ml LL-37; normalized to 630∆erm + pMC123 in BHIS; mean of 3 ± SEM
C. difficile clnR pMC123 = assay: qRT-PCR, His-ClnR complementation; details: 0.5 µg/ml LL-37; normalized to 630∆erm + pMC123 in BHIS; mean of 3 ± SEM
[2] = tested on: C. difficile clnR pMC123 PclnR::HIS-clnRAB; assay: qRT-PCR, His-ClnR complementation; details: 0.5 µg/ml LL-37; normalized to 630∆erm + pMC123 in BHIS; mean of 3 ± SEM

SMILES: CC[C@H](C)[C@H](NC(=O)[C@H](CCCCN)NC(=O)[C@H](CCC(=O)O)NC(=O)[C@H](CCCCN)NC(=O)[C@H](CO)NC(=O)[C@H](CCCCN)NC(=O)[C@H](CCCNC(=N)N)NC(=O)[C@H](Cc1ccccc1)NC(=O)[C@H](Cc1ccccc1)NC(=O)[C@H](CC(=O)O)NC(=O)CNC(=O)[C@H](CC(C)C)NC(=O)[C@@H](N)CC(C)C)C(=O)NCC(=O)N[C@@H](CCCCN)C(=O)N[C@@H](CCC(=O)O)C(=O)N[C@@H](Cc1ccccc1)C(=O)N[C@@H](CCCCN)C(=O)N[C@@H](CCCNC(=N)N)C(=O)N[C@H](C(=O)N[C@H](C(=O)N[C@@H](CCC(N)=O)C(=O)N[C@@H](CCCNC(=N)N)C(=O)N[C@H](C(=O)N[C@@H](CCCCN)C(=O)N[C@@H](CC(=O)O)C(=O)N[C@@H](Cc1ccccc1)C(=O)N[C@@H](CC(C)C)C(=O)N[C@@H](CCCNC(=N)N)C(=O)N[C@@H](CC(N)=O)C(=O)N[C@@H](CC(C)C)C(=O)N[C@H](C(=O)N1CCC[C@H]1C(=O)N[C@@H](CCCNC(=N)N)C(=O)N[C@H](C(=O)N[C@@H](CCC(=O)O)C(=O)N[C@@H](CO)C(=O)O)[C@@H](C)O)C(C)C)[C@@H](C)CC)C(C)C)[C@@H](C)CC [LL-37]
- Kd (His-ClnR): 0.083 ± 0.014 µM
- clnA (CD630_16180) relative expression [1]: 81.6 ± 20.5
- clnA (CD630_16180) relative expression (C. difficile clnR pMC123): 44.9 ± 8.0
- vanZ1 (CD630_12400) relative expression (C. difficile clnR pMC123): 21.8 ± 1.8
- clnA (CD630_16180) relative expression [2]: 236.5 ± 22.7
- vanZ1 (CD630_12400) relative expression [2]: 18.6 ± 2.3

Source: article PMC6117091, “The C. difficile clnRAB operon initiates adaptations to the host environment in response to LL-37” (PLoS Pathogens, 2018)
